{
  "source": "patent US20260144805A1",
  "about": "“CANNABIDIOL COMPOSITIONS FOR USE IN THE TREATMENT OF NEURODEGENERATIVE AND NEUROLOGICAL DISORDERS” (JAZZ PHARMACEUTICALS RESEARCH UK LIMITED, priority 2022, published 2026)",
  "key": {"[1]": {"experiment": "Brain weight of rTg4510 mice (Example 2)", "type": "in vivo, mouse", "conditions": "rTg4510 CC mice receiving risperidone or DS", "protocol": "Brain Tissue Collection: Mice were decapitated and the brains rapidly extracted. Brains were briefly washed in saline and blot dried then hemisected, weighed separately and frozen on dry ice before storage at approximately −80° C.\nBrain weights were analysed by 2-way analysis of variance with treatment and cohort as factors."}, "[2]": {"experiment": "Weekly body weight of rTg4510 mice (Example 2)", "type": "in vivo, mouse", "conditions": "acute and chronic efficacy phases, weeks 30-32; Risperidone or DS", "protocol": "Weekly bodyweight: all animals were weighed weekly until the end of the study.\nWeekly body weight data were analysed by mixed linear model with the cohort by week and group by week interactions as fixed effects, animal as the random subject, using an AR (1)+RE correlation structure. Comparisons to the WW and rTg4510 (vehicle) groups for the same week were by the multiple t test."}},
  "data": [
    {"smiles": "Cc1nc2n(c(=O)c1CCN1CCC(c3noc4cc(F)ccc34)CC1)CCCC2", "note": "[Risperidone]", "values": [
      {"measurement": "brain weight vs rTg4510 CC mice which received vehicle", "setting": "[1]", "value": "no significant differences"},
      {"measurement": "changes in bodyweight", "setting": "[2]", "value": "no significant changes"}
    ]}
  ]
}
